Data from PubChem BioAssay AID504845 (National Center for Advancing Translational Sciences (NCATS), 2011).
Where “and” joins values, the source holds several entries; their conditions need not be identical. Equal entries are not always repeated. The campaign covered roughly 390,000 compounds. About 150 (0.038%) were called active. Listed are the inconclusive results; actives and inactives stand elsewhere. Calls follow the shape of the dose curve; as a rule, active = well fitted inhibition curve with a large enough effect; inconclusive = small, poorly fitted or top-dose-only effect; inactive = no such curve, though single readings can be large or run the other way.

Sequences of proteins named here, by UniProt entry; tags and fusion partners are left off. A change or cut given only in a name is not applied to a line headed by its entry.
UniProt P49798: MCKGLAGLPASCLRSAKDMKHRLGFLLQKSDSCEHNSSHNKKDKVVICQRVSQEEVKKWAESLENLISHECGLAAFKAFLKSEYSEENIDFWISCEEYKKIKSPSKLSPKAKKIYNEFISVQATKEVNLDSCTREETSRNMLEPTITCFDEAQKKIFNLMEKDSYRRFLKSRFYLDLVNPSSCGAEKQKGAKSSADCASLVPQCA

Target: Regulator of G-protein signaling 4 (Homo sapiens) (UniProt P49798)
Experiment: Inhibitors of Regulator of G Protein Signaling (RGS) 4: qHTS; also: nearly all actives have a fitted effect of over 75% in size
Settings: Transcreener GDP fluorescence polarization, RGS4-accelerated GTP hydrolysis
Potency is read from the fitted curve at half-maximal effect.

**Q.** How did the Potency turn out when `CN(C(=O)Cc1ccc(Cl)c(Cl)c1)[C@@H]1CCCC[C@@H]1N1CCCC1` was run?
**A.** inconclusive: 0.751 µM

**Q.** For `CN(C(=O)Cc1ccccc1)[C@H]1CC[C@@]2(CCCO2)C[C@@H]1N1CCCC1`, which Potency is on record?
**A.** inconclusive: 13.4 µM

**Q.** How did the Potency turn out when `CC(=O)C1=CCCC2CCC1N2` (stereo not drawn) was run?
**A.** inconclusive: 0.0752 µM

**Q.** For `CCc1nc2c(n1)c1c(non1O)c1c2no[n+]1[O-]`, which Potency is on record?
**A.** inconclusive: 17.8 µM

**Q.** For `CC(C)(C)C(=O)NC(Sc1ccncn1)C(Cl)(Cl)Cl` (stereo not drawn), which Potency is on record?
**A.** inconclusive: 56.2 µM

**Q.** Which Potency does the source give for `Cc1cc(SC(NC(=O)c2ccc(F)cc2)C(Cl)(Cl)Cl)ncn1` (stereo not drawn) here?
**A.** inconclusive: 17.8 µM

**Q.** For `CN(C(=O)Cc1ccc(Cl)c(Cl)c1)[C@H]1CCCC[C@@H]1N1CCCC1`, which Potency is on record?
**A.** inconclusive: 2.38 µM and inconclusive: 212 nM and inconclusive: 168 nM

**Q.** `O=C(NC(Sc1ccncn1)C(Cl)(Cl)Cl)c1ccccc1` (stereo not drawn) was tested. Which Potency did it give?
**A.** inconclusive: 56.2 µM

**Q.** For `COc1ccc(N/C(=N/P(=O)(N2CCOCC2)N2CCOCC2)N2CCOCC2)cc1`, which Potency is on record?
**A.** inconclusive: 100 µM

**Q.** With `Cc1ccc2nc3c(c(C)c2c1)CC(C(Cl)Cl)S3` (stereo not drawn) as the compound, how does the Potency read?
**A.** inconclusive: 112 µM

**Q.** For `Cc1cc(SC(NC=O)C(Cl)(Cl)Cl)ncn1` (stereo not drawn), which Potency is on record?
**A.** inconclusive: 17.8 µM

**Q.** How did the Potency turn out when `Cc1cc(SC(NC(=O)c2ccccc2)C(Cl)(Cl)Cl)nc(C(C)C)n1` (stereo not drawn) was run?
**A.** inconclusive: 50.1 µM

**Q.** How did the Potency turn out when `CS(=O)(=O)c1cc([N+](=O)[O-])c2no[n+]([O-])c2c1` was run?
**A.** inconclusive: 28.2 µM
